# The list shows a part of the results, in another mix than the full data. Calls of active or inactive are those of the source. Cut-off read from the data, not from the text of the source: active = inhibition above about 35%; inactive = the rest.
# Test: lowers stimulated NF-kB luciferase signal in 697 B cells – cell-based, luminescence, uHTS, B-cell NF-kB inhibitor project, primary screen (AID 435022)
# Settings: 697 B-cell NF-kB luciferase reporter, PMA/ionomycin, 16 h; at 4 µM; active compounds read high
row,SMILES,inhibition
1,O=P1(Nc2ncccn2)COc2ccccc2OC1,inactive: -36.9%
2,O=[As](O)(c1cccs1)c1cccs1,inactive: -3.89%
3,Cc1ccc(OCC(=O)OC2CN3CCC2CC3)cc1 (stereo not given),inactive: 3.63%
4,NS(=O)(=O)c1cccc(NC(=O)COC(=O)C(O)(c2ccccc2)c2ccccc2)c1,inactive: 11.2%
5,O=P1(Nc2ccc(Br)cn2)COc2ccccc2OC1,inactive: 11.3%
6,Nc1cccc([As](=O)(O)c2ccccc2)c1,inactive: 13.1%
7,Cc1nn(-c2ccccc2)c2c1P(=O)(N1CCOCC1)N(C)C(c1ccccc1)=N2 (stereo not given),inactive: 3.34%
8,Cc1ccc(C(=O)OC2CN3CCC2CC3)cc1 (stereo not given),inactive: 16%
9,CC1CCC(C(C)C)C(OP(=O)(Nc2ccccn2)c2ccccc2)C1 (stereo not given),inactive: 9.89%
10,O=C(/C=C/c1ccccc1)OC1CN2CCC1CC2 (stereo not given),inactive: -5.32%
11,CN(C)C1(CNC(=O)c2ccc(S(C)(=O)=O)cc2)CCCCC1,inactive: 4.3%
12,COc1ccccc1CNC(=O)COC(=O)C(O)(c1ccccc1)c1ccccc1,inactive: -3.31%
13,O=[As](O)(c1ccccc1Br)c1ccccc1Br,inactive: 2.03%
14,CC1(CBr)Cn2c(nc3ccccc3c2=O)S1 (stereo not given),inactive: 7.43%
15,CN(C(=O)Cc1ccc(Cl)c(Cl)c1)[C@@H]1CCCC[C@H]1N1CCCC1,inactive: -11.3%
16,CC(C)/C=N\N=C(\N)N[N+](=O)[O-],inactive: 3.55%
17,CCOP(=O)(Nc1ccc(C)cn1)OCC,inactive: 18%
18,CN(CCCl)Cc1cc(Cl)c(NC2=NCCN2)c(Cl)c1,inactive: 11.2%
19,CCC1=CC2Cc3nc4ccc(Cl)cc4c(N)c3C(C1)C2 (stereo not given),inactive: -24.5%
20,O=P1(Nc2ccccn2)COc2ccccc2OC1,inactive: -31.1%
21,CCOP(=O)(NC(=NC(C)c1ccccc1)NC(C)c1ccccc1)OCC (stereo not given),inactive: -27.8%
22,Clc1n[nH]nc1-c1nn[nH][15n]1,inactive: 20%
23,CC(C)(C)C(=O)NC(Sc1ncccn1)C(Cl)(Cl)Cl (stereo not given),inactive: 9.07%
24,CCCOP(=S)(Nc1nc(N)cc(=O)[nH]1)OCCC,inactive: 1.08%
25,Cc1ccc(NCCc2c([N+](=O)[O-])cc([N+](=O)[O-])cc2[N+](=O)[O-])cc1,inactive: 6.65%

row,SMILES,inhibition
1,COc1cc(C2NCCC3(OCCO3)C2(C)C)cc(OC)c1OC (stereo not given),inactive: -3.82%
2,CCOP(=O)(Nc1cccc2ccccc12)OCC,inactive: -4.81%
3,O=[As](O)(O)c1cccnc1,inactive: -15.9%
4,COc1cc(C(=O)NCC2(N3CCOCC3)CCCCC2)cc(Cl)c1OC(C)C,inactive: -17.1%
5,CS(=O)(=O)c1ccc(Cl)c(NC(=O)COC(=O)C(O)(c2ccccc2)c2ccccc2)c1,inactive: -13.9%
6,O=C(OC1CN2CCC1CC2)c1ccc(Cl)cc1 (stereo not given),inactive: -7.27%
7,Cc1cccc(OCC(=O)OC2CN3CCC2CC3)c1 (stereo not given),inactive: 10.5%
8,O=[As](O)(c1cccc(O)c1)c1cccc(O)c1,inactive: -9.36%
9,NC(=O)Nc1ccc([As](=O)(O)O)cc1,inactive: -6.76%
10,O=[N+]([O-])c1ccc2c(c1)nnn2O,inactive: 10.7%
11,CN(C)C(=O)c1cc([N+](=O)[O-])cc2c1-c1c(cc([N+](=O)[O-])cc1[N+](=O)[O-])C2=O,inactive: -20.1%
12,CN(C(=O)Cc1ccc(Cl)c(Cl)c1)[C@H]1CC[C@@]2(CCCO2)C[C@@H]1N1CCCC1,inactive: 4.05%
13,N#CCCN(C(=O)COC(=O)C(O)(c1ccccc1)c1ccccc1)c1ccc(F)cc1,inactive: -17.7%
14,CN(C(=O)Cc1ccccc1)[C@@H]1CC[C@]2(CCCO2)C[C@H]1N1CCCC1,inactive: 9.55%
15,CCOP1(=S)c2c(C)nn(CCC#N)c2N=C(c2ccc(F)cc2)N1C (stereo not given),inactive: 10.9%
16,CS(=O)(=O)c1cc([N+](=O)[O-])c2no[n+]([O-])c2c1,inactive: 2.07%
17,CCOP1(=S)c2c(C)nn(CCC#N)c2N=C(c2ccccc2F)N1C (stereo not given),inactive: 11.8%
18,O=P(Nc1nccs1)(Oc1ccccc1)Oc1ccccc1,inactive: -13.8%
19,O=P(Nc1nccs1)(c1ccccc1)c1nc2ccccc2s1 (stereo not given),inactive: -18.8%
20,O=C(O)COc1ccc([As](=O)(O)O)cc1[N+](=O)[O-],inactive: 0.54%
21,Nc1ccccc1[As](=O)(O)c1ccccc1,inactive: 8.88%
22,CC(C)c1ccc(OP(=O)(Nc2ccccn2)Oc2ccccc2F)cc1 (stereo not given),inactive: -20.1%
23,ClCCSc1nnc(-c2cccnc2)o1,inactive: -0.597%
24,CC(C)NC(=O)NP(=O)(Oc1ccccc1)Oc1ccccc1,inactive: 11.7%
25,O=C(OC1CN2CCC1CC2)c1cccc2[nH]cnc12 (stereo not given),inactive: 5.68%

row,SMILES,inhibition
1,CCN(CC)C(=S)SC(NC=O)C(Cl)(Cl)Cl (stereo not given),inactive: -26%
2,O=[N+]([O-])c1cc([N+](=O)[O-])c(-c2ccn[nH]2)s1,inactive: -3.52%
3,C[As](=O)(O)c1cccc(C(=O)O)c1,inactive: -4.02%
4,O=[As](O)(c1ccc(O)cc1)c1ccccc1O,inactive: -0.319%
5,COc1cc(C(=O)NCC2(N3CCOCC3)CCCCC2)ccc1OCC(C)C,inactive: 6.37%
6,Cc1ccc2nc3c(c(C)c2c1)CC(C(Cl)Cl)S3 (stereo not given),inactive: -25.9%
7,Cc1ccc(OP(=O)(Nc2ccc([N+](=O)[O-])cn2)Oc2ccc(C)cc2)cc1,inactive: -17.5%
8,COc1ccc(N/C(=N/P(=O)(N2CCOCC2)N2CCOCC2)N2CCOCC2)cc1,inactive: 19.7%
9,O=C(OC1CN2CCC1CC2)C12CC3CC(CC(C3)C1)C2 (stereo not given),inactive: 10.5%
10,Cc1cc(=O)[nH]c(N[N+](=O)[O-])n1,inactive: -9.63%
11,Cc1c2c(nc3ccccc13)SC(C(Cl)Cl)C2 (stereo not given),inactive: -13.5%
12,COc1ccc2nc(NP(=O)(c3ccccc3)c3ccccc3)sc2c1,inactive: 8.06%
13,COc1cc(I)ccc1[As](=O)(O)O,inactive: 2.8%
14,CCOC(=O)c1ccc(NC(=O)C(C)(CCl)SC)cc1 (stereo not given),inactive: -25.6%
15,O=C(OC1CN2CCC1CC2)c1cccc([N+](=O)[O-])c1 (stereo not given),inactive: 4.12%
16,CCC(C)N(CC(C)C)C(=S)SC(NC(C)=O)C(Cl)(Cl)Cl (stereo not given),inactive: 11.9%
17,COP1(=S)c2c(C)nn(CCC#N)c2N=C(c2ccc(F)cc2)N1C (stereo not given),inactive: 0.129%
18,O=C(COc1ccccc1)OC1CN2CCC1CC2 (stereo not given),inactive: -0.982%
19,O=C(Nc1ccncc1[N+](=O)[O-])c1ccc([N+](=O)[O-])cc1[N+](=O)[O-],inactive: 6.46%
20,CCOC(=O)Nc1cccc([As](=O)(O)O)c1,inactive: -6.73%
21,Cc1cc(SC(NC=O)C(Cl)(Cl)Cl)ncn1 (stereo not given),inactive: 3.39%
22,O=P(Nc1ccccn1)(c1cccc2ccccc12)c1cccc2ccccc12,inactive: -10.4%
23,CCOC(=O)Nc1ccc([As](=O)(O)O)c(O)c1,inactive: 25.8%
24,CCCCOc1ccc(C(=O)NCC2(N3CCCCC3)CCCCC2)cc1OC,inactive: -9.65%
25,Cc1cc(SC(NC(=O)c2ccccc2)C(Cl)(Cl)Cl)nc(C(C)C)n1 (stereo not given),inactive: 4.75%

row,SMILES,inhibition
1,CC(C)(C)C(=O)NC(Sc1ccncn1)C(Cl)(Cl)Cl (stereo not given),inactive: 22.5%
2,O=[N+]([O-])c1ncn(CCn2ncnc2[N+](=O)[O-])n1,inactive: 10.7%
3,O=[N+]([O-])c1cccc(NC2=NCC(CBr)S2)c1 (stereo not given),inactive: -11.9%
4,O=C(Nc1cc([As](=O)(O)O)ccc1O)c1ccccc1,inactive: 3.23%
5,Nc1ccc([As](=O)(O)c2ccc(N)cc2)cc1,inactive: 13.4%
6,C[N+]1=C2C=CC=CC=C2SC12C([N+](=O)[O-])=CC([N+](=O)[O-])=C[C-]2[N+](=O)[O-] (stereo not given),inactive: -33%
7,CCN(/C(=N/P(=O)(N1CCOCC1)N1CCOCC1)N1CCOCC1)c1ccc(OC)cc1,inactive: 2.57%
8,CC(C)=N/N=C(\N)N[N+](=O)[O-],inactive: 1.64%
9,CN(C)C(=O)OCCc1n(C)cc[n+]1C,inactive: 12.7%
10,CC1CCN(C(=O)Oc2c(Cl)cc(Cl)c3cccnc23)CC1,inactive: 1.93%
11,COc1ccc(C2=NCC(CBr)S2)cc1 (stereo not given),inactive: -6.68%
12,CC(=O)N1C2C3N(C(C)=O)C1C1N(C(C)=O)C(C(N1C(C)=O)N3C(C)=O)N2C(C)=O,inactive: 8.87%
13,O=[N+]([O-])c1cccc2n[nH]nc12,inactive: -27.1%
14,Cc1ccc(NP(=O)(Oc2ccccc2)Oc2ccccc2)nc1,inactive: -18.6%
15,O=[N+]([O-])c1cc([N+](=O)[O-])c(CCNc2ccccc2)c([N+](=O)[O-])c1,inactive: 1.32%
16,CCc1nc2c(n1)c1c(non1O)c1c2no[n+]1[O-],inactive: -43.6%
17,Nc1cc(N)c2nonc2c1[N+](=O)[O-],inactive: 3.29%
18,CC(C)CC(=O)NC(Sc1ccc(Cl)cc1)C(Cl)(Cl)Cl (stereo not given),inactive: -8.58%
19,Oc1ccccc1CNc1ccccn1,inactive: 12.5%
20,O=C(NC(Sc1ccncn1)C(Cl)(Cl)Cl)c1ccccc1 (stereo not given),inactive: 4.07%
21,Cc1c2non([O-])c-2c(C)[n+](=O)[n+]1[O-],inactive: 2.9%
22,NC(=O)c1cc([N+](=O)[O-])cc([N+](=O)[O-])c1N,inactive: 9.15%
23,CN(C(=O)Cc1ccc(Cl)c(Cl)c1)[C@H]1CCCC[C@H]1N1CCCC1,inactive: 21%
24,Cc1ccc(N/C(=N/P(=O)(N2CCOCC2)N2CCOCC2)N2CCOCC2)cc1,inactive: 5.73%
25,COc1ccccc1OP(=O)(Nc1ccc(C)cn1)Oc1ccccc1OC,inactive: -4.3%

# From PubChem BioAssay AID435022 (Sanford-Burnham Center for Chemical Genomics, 2010)
